Data from ChEMBL document CHEMBL2016541, “Synthesis and biological evaluation of isoxazolo[4,5-d]pyridazin-4-(5H)-one analogues as potent anti-inflammatory agents” (Bioorg Med Chem, 2012).

Assay: Selectivity ratio of IC50 for ovine COX1 to IC50 for recombinant human COX2

Row | Ratio IC50 | SMILES
1 | 9.15 | CCn1c(Cn2nc(Cc3ccc(OC)cc3)c3onc(C)c3c2=O)n[nH]c1=S
2 | > 10 | CCn1c(Cn2nc(Cc3ccc([N+](=O)[O-])cc3)c3onc(C)c3c2=O)n[nH]c1=S
